Data as given in patent US6645774B1 (Synaptic Pharmaceutical Corporation, priority 1994, dated 2003).

Protein sequences, listed by entry. Tags and fused reporters are not part of them.
UniProt P21555, whole entry: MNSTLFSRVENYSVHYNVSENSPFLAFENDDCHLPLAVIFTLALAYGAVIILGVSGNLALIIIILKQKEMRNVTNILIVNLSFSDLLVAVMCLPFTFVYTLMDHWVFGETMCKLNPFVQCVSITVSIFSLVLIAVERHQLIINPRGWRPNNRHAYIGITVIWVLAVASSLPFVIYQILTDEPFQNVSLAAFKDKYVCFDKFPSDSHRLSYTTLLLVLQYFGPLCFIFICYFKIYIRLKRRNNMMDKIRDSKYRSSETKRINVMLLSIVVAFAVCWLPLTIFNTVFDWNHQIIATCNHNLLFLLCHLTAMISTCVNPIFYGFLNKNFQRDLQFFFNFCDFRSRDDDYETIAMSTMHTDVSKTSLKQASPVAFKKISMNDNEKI

Assays:
[1] = target: T1, rat Y1 receptor (Rattus norvegicus, UniProt P21555); assay: Block of NPY-induced activation of rat Y1 receptors; type: cell-based
[2] = target: T1, rat Y1 receptor; assay: ^125I-PYY binding to cloned rat Y1 receptor (COS-7 membranes); conditions: read-out: Ki rat Y1 receptor; cloned rat Y-type receptors; expression system not given

`NC(N)=NCCC[C@@H](NC(=O)C(c1ccccc1)c1ccccc1)C(=O)NCc1ccc(O)cc1` [BIBP 3226] gave a Kb [1] of 9.4 nM and a pKi [2] of 7.70.

pKi: −log10 of the molar value.
